This note sets out measurements from patent US20070110714A1 (priority 2003, published 2007).

The test system of experiment [1] is Monocyte-derived DCs from healthy donors (N-DC). Description: MICA/B expression in stimulated DC by flow cytometry (N-DC). The following applies: N-DC stimulated 24 hours with cytokine at day 6. It is filed as cell-based, human. An excerpt: (§1) 15 healthy volunteers and 20 chronic HCV-infected patients were used as test subjects. […] Serum alanine amino transferase (ALT)level was periodically measured, and HCV-infected patients were classified into two groups depending on the extent of necrotic inflammatory hepatic disease. Patients (n=10) showing persistent or fluctuant ALT increase were defined to be included in CH-1 group, and other patients (n=10) persistently showing normal ALT for 2 years or more were defined to be included in CH-2 group. Monocyte-derived DCs were produced from peripheral vein blood of the healthy volunteers and chronic HCV-infected patients. […]
(§2) DCs (5×10^5) were incubated at 4° C. for 30 minutes together with an anti-MICA/B monoclonal antibody (6D4) (Science 279: 1737, 1998). […] The cells were analyzed by flow cytometory using FACScan system (BD-Pharmingen), and the data were analyzed using CELL Quest (trade name) software.
Whether MICA/B is induced by various cytokines or not was investigated in DCs derived from healthy donors and HCV-infected patients having or not having ALT abnormality. […] Then, MICA/B expression was analyzed by flow cytometry.
N-DC was cultured for 24 hours together with 1000 U/ml IFNa in the presence or absence of an anti-IL-15 antibody (30 μg/mL) or an anti-IL-15Ra neutralization antibody (30 μg/mL), then, MICA/B expression was analyzed by flow cytometry. […]

The test system of experiment [2] is Monocyte-derived DCs from HCV-infected patients (HCV-DC). Kind of experiment: MICA/B expression in stimulated DC by flow cytometry (HCV-DC). The following applies: HCV-DC stimulated 24 hours with cytokine at day 6. It is filed as cell-based, human.
From the text: as §1, §2
Whether MICA/B is induced by various cytokines or not was investigated in DCs derived from healthy donors and HCV-infected patients having or not having ALT abnormality. […] Then, MICA/B expression was analyzed by flow cytometry. […]
Next, N-DC and HCV-DC were stimulated for 24 hours with 50 ng/ml IL-15 in the presence or absence of an anti-IFNa/βR neutralization antibody (30 μg/mL), then, MICA/B expression was analyzed by flow cytometry. […]

Take “IFNβ: interferon beta (Toray Industries)”: the MICA/B expression result is reported as “express MICA/B” in experiment [1] and “did not express MICA/B” in experiment [2].
